This assay addresses Translocator protein (Homo sapiens, UniProt P30536). In words: Displacement of [3H]-PK11195 from PBR after 1 hr by scintillation counting. In general terms: In a radioligand displacement assay an active substance lowers the binding of a labelled ligand.

The chains behind the UniProt entries cited, without tags or fusion partners.
UniProt P30536, whole entry: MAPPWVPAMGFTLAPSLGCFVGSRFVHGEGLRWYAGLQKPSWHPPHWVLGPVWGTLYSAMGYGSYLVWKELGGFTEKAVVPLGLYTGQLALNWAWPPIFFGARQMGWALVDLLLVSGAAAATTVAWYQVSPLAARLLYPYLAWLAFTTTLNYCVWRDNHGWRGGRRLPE

Structures are written as SMILES.

Usually IC50 stands for the point on the concentration scale where inhibition reaches its midpoint. A high value points to a need for much substance. As to `CCC(C)N(C)C(=O)c1cc2ccccc2c(-c2ccccc2Cl)n1` (stereo unspecified) [PK-11195], the IC50 was determined as 0.49 µM.

The record behind these values is ChEMBL document CHEMBL1671831, “TSPO 18 kDa (PBR) Targeted Photosensitizers for Cancer Imaging (PET) and PDT” (ACS Med Chem Lett, 2011).
